Earlier results on one compound are cited in patent US12527781B2, “Treatment of neurodegenerative conditions by disruption of Rhes” (The Regents of the University of California, priority 2017, dated 2026).

The series has as its target farnesyl transferase (Homo sapiens, UniProt P49356). Particulars: farnesyl transferase inhibitor; cited from earlier work.

As for `NC(=O)N1CCC(CC(=O)N2CCC([C@H]3c4ncc(Br)cc4CCc4cc(Cl)cc(Br)c43)CC2)CC1` [Lonafarnib], the Ki entry was “in the nM range”.
